# Compound activity (PubChem BioAssay)
# This is a sample that favours compounds with a hit; in the whole collection about 2.2% have one here.
# FGF22 binding: FGF22 (human) thermal shift binding; recombinant FGF22 thermal shift, SYPRO orange fluorescence; percent of sucrose octasulfate shift, DMSO zero; activity (Tm shift, normalised), % at 9.99 µM; AID 651658; actives 1.5% (n = 340,000);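 active means mean Tm shift, scaled 0 neutral to 100 positive control, at about 1.3% or above, every replicate too, limit read from the data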
# SIRT5 inh: inhibitors of human sirtuin-5 desuccinylase; Q9NXA8; Purified SirT5, succinyl-peptide AMC, trypsin-coupled fluorescence; inhibition, % at 15 µM; AID 652115; actives 1.1% (n = 330,000); in the data active means inhibition above about 15%
# Yeast UUG start: modulators of yeast start codon fidelity, primary screen, whole organism, S. cerevisiae, single point, plate reader. S. cerevisiae UUG-firefly luciferase reporter, luminescence/redox ratio. activity score, % at 18.7 µM. 350,000 tested, 0.13% active;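 active = replicate mean at a twofold rise or more, about +100% in these data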;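 also: firefly luciferase made from a UUG start codon reports start codon fidelity; reporter light over untreated wells divided by growth signal over untreated wells; some hits fall short of that in this replicate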
# ERp5 inh: blocks human ERp5 reductase activity on insulin; Q15084; ERp5 insulin aggregation, absorbance 650 nm, 90 min; inhibition, % at 9.99 µM; actives 0.05% (n = 350,000);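 active means mean replicate inhibition above about 25%, with every replicate also reaching it, limit read from the data, passing the limit was not always enough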
# S100A4 MyoIIA: inhibitors of human S100A4 binding to myosin IIA peptide; P26447; S100A4/TAMRA-MyoIIA peptide fluorescence polarization; inhibition, % at 10.7 µM; actives 0.14% (n = 360,000);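 active means mean inhibition of at least 70% across replicates, with every replicate also reaching that level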
#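 Test system: S100A4 monomer protein; Medium: HEPES pH 7.2 with CaCl2, KCl, NaCl, DTT, Triton; Probe or stimulus: TAMRA-labelled myosin IIA heavy-chain peptide probe, 5 nM; Doses: one dose per compound; Times: polarization read 5 min after assay mix addition, stable 5–60 min; Benchmarks: neutral control DMSO, positive control TFP.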
# PDI inh: inhibitors of human protein disulfide isomerase; P07237; PDI insulin aggregation turbidity, A650, 90 min; inhibition, % at 10 µM; actives 0.052% (n = 350,000);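 active means mean inhibition across replicates of 30% or more, whatever share of single replicates reach that level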
# A number is an active result; i = inactive; nt = no result.
SMILES,FGF22 binding,SIRT5 inh,Yeast UUG start,ERp5 inh,S100A4 MyoIIA,PDI inh
C[C@@H]1CN([C@H](C)CO)C(=O)c2cccc(NS(=O)(=O)c3cn(C)cn3)c2O[C@@H]1CN(C)C(=O)Nc1cccc2ccccc12,i,i,i,i,i,nt
C[C@@H]1CN([C@@H](C)CO)C(=O)c2cccc(NS(=O)(=O)c3cn(C)cn3)c2O[C@H]1CN(C)C(=O)Nc1cccc2ccccc12,i,29,i,i,i,nt
C[C@H]1CN([C@@H](C)CO)C(=O)c2cccc(NS(=O)(=O)c3cn(C)cn3)c2O[C@@H]1CN(C)Cc1ccc(C(F)(F)F)cc1,i,i,i,i,i,nt
COc1ccc(C#Cc2ccc3c(c2)[C@@H]2[C@@H](CCN2C(=O)C2CC2)[C@@H](CO)N3)cc1,i,i,i,i,i,nt
CCC(=O)N1CCC2(CC1)CN(Cc1nccs1)[C@@H](CO)c1c2c2ccc(OC)cc2n1C,i,nt,nt,i,i,nt
O=C(O)c1cccc(NC(=S)NC(NC(=O)c2cccc([N+](=O)[O-])c2)C(Cl)(Cl)Cl)c1 (stereo not drawn),2.8,i,i,i,i,i
C[C@@H]1CN([C@@H](C)CO)C(=O)c2cc(NC(=O)CCCN(C)C)ccc2O[C@@H](C)CCCCO[C@@H]1CN(C)Cc1ccc2c(c1)OCO2,i,i,nt,i,i,nt
O=C(c1ccc(Cl)cc1)C1CCCN(C(=O)/C=C/c2ccccn2)C1 (stereo not drawn),44,i,i,i,i,i
COc1ccc(C(=O)C2CCCN(C(=O)/C=C/c3ccccn3)C2)c(C)c1 (stereo not drawn),nt,nt,nt,nt,nt,i
Cc1cc(C)cc(N(C(=O)c2sc(C)nc2C)C(C(=O)NCc2ccco2)c2ccccc2)c1 (stereo not drawn),i,i,i,i,i,i
Cc1cc(C)cc(N(C(=O)c2sc(C)nc2C)C(C(=O)NC(C)(C)C)c2ccncc2)c1 (stereo not drawn),43,i,i,i,i,i
CCC(=O)N[C@@H]1C=C[C@@H](CC(=O)NCC2CC2)O[C@@H]1CO,nt,i,nt,i,i,nt
CCN1CCN(CC(O)COC(c2ccccc2)c2ccccc2)CC1 (stereo not drawn),44,i,i,i,i,i
OC(COC(c1ccccc1)c1ccccc1)CN1CCCCC1 (stereo not drawn),nt,nt,i,nt,nt,i
COc1ccc(S(=O)(=O)N[C@H]2CC[C@@H](CC(=O)N3CCN(c4ccccc4)CC3)O[C@H]2CO)cc1,i,i,i,i,i,nt
Cc1noc(C)c1NC(=O)N[C@@H]1C=C[C@@H](CC(=O)N2CCCCC2)O[C@@H]1CO,i,i,i,i,i,nt
C[C@@H]1CN([C@H](C)CO)S(=O)(=O)c2ccc(C#Cc3ccccn3)cc2O[C@H]1CN(C)Cc1ccccc1,i,i,i,i,i,nt
Cc1ccc2nc3c(c(C(=O)OCC(=O)NC4CCS(=O)(=O)C4)c2c1)CCCC3 (stereo not drawn),43,nt,nt,i,i,i
Cc1cc(C(=O)OC2CCOC2=O)c2ccccc2n1 (stereo not drawn),nt,nt,i,nt,nt,i
Cc1ccc2nc3c(c(C(=O)OC4CCOC4=O)c2c1)CCCC3 (stereo not drawn),43,i,i,i,i,i
Cc1ccc(C(=O)OCC(=O)NC2CCS(=O)(=O)C2)c(C)c1 (stereo not drawn),i,i,i,i,i,i
CCSc1nnc(NC(=O)CSc2sc3c(O)cc(=O)[nH]c3c2C#N)s1,nt,32,i,i,i,i
Cc1ccc(C)c(NC(=O)CSc2sc3c(O)cc(=O)[nH]c3c2C#N)c1,i,i,i,i,i,i
COC(=O)c1ccc(C)c(NC(=O)CSc2sc3c(O)cc(=O)[nH]c3c2C#N)c1,nt,19,i,i,i,i
Cc1ccc(Cl)cc1NC(=O)CSc1sc2c(O)cc(=O)[nH]c2c1C#N,nt,i,i,i,i,i
Cc1csc(NC(=O)CSc2sc3c(O)cc(=O)[nH]c3c2C#N)n1,i,42,i,i,i,i
CCc1nnc(NC(=O)CSc2sc3c(O)cc(=O)[nH]c3c2C#N)s1,i,29,i,i,i,i
